# Experimental data as given in PubChem BioAssay AID720 (The Scripps Research Institute Molecular Screening Center, 2007).
# By UniProt entry, the sequences of proteins in these tests, tags left out. Where a name states a change or a piece, a line headed by the entry shows the natural chain unless it says otherwise.
# UniProt P54760: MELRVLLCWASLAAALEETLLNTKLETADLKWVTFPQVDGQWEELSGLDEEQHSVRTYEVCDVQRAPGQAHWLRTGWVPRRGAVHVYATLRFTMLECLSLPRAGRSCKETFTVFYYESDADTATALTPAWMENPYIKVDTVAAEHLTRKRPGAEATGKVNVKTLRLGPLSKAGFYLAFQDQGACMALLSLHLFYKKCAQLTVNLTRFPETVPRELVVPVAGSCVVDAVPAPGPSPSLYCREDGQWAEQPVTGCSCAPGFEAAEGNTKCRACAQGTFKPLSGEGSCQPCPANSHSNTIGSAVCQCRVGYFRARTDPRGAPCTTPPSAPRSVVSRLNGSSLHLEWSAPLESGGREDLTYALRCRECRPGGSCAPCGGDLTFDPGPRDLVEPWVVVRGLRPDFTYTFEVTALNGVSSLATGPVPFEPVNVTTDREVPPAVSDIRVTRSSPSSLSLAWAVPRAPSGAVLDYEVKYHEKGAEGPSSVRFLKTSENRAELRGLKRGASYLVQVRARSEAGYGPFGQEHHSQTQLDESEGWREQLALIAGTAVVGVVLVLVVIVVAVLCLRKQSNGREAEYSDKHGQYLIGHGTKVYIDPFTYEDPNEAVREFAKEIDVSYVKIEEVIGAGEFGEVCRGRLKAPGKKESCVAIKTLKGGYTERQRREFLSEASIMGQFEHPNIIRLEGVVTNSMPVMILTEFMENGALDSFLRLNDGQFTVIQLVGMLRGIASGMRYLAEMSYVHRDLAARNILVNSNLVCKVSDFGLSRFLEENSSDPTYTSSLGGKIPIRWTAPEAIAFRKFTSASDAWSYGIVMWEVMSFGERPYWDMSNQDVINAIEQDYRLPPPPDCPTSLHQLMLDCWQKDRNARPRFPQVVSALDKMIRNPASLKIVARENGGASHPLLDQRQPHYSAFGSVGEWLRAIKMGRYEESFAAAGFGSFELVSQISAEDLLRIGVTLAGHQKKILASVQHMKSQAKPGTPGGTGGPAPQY
# This is a selection; strong and weak results do not stand in their true shares. Active and inactive are the calls of the source.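 The calls were made as follows: active = inhibition above the screen-wide mean inhibition plus 3 SD (cut at about 15% in these data); inactive = the rest.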
# Target: Ephrin type-B receptor 4 (Homo sapiens) (UniProt P54760)
# Assay: blockers of EphB4 ligand binding – biochemical, TNYL-RAW peptide probe, fluorescence polarization, primary screen (AID 720);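 also: 0% = DMSO wells and 100% = excess unlabeled TNYL-RAW peptide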
# Conditions: EphB4 LBD / TNYL-RAW-Alexa532 peptide, at 7 µM, hits give high values
row,SMILES,inhibition
1,O=C(OC1CN2CCC1CC2)c1cccc(Cl)c1 (stereo not drawn),inactive: -0.69%
2,c1nnnn1CCn1cnnn1,inactive: -1.52%
3,O=P(Nc1nccs1)(c1ccccc1)c1ccccc1,inactive: -6.94%
4,O=P1(Nc2nc3ccc(Cl)cc3s2)COc2ccccc2O1 (stereo not drawn),inactive: -2.39%
5,COC(=O)c1cc2c(s1)N=C(c1ccccc1)N(C)P2(=O)N1CCOCC1 (stereo not drawn),inactive: -2.25%
6,CCC(=O)N1C2C3N(C(=O)CC)C1C1N(C(=O)CC)C(C(N1C(=O)CC)N3C(=O)CC)N2C(=O)CC,inactive: -2.56%
7,CCOC(=O)NC(Sc1ccccc1)C(Cl)(Cl)Cl (stereo not drawn),inactive: 7.08%
8,CCOP(=O)(Nc1ccccc1)OCC,inactive: 1.53%
9,CC(C)CC(=O)NC(Sc1ccc(Cl)cc1)C(Cl)(Cl)Cl (stereo not drawn),inactive: 1.54%
10,Oc1ccccc1CNc1ccccn1,inactive: 1.88%
11,Cc1c2non([O-])c-2c(C)[n+](=O)[n+]1[O-],inactive: 1.93%
12,CN1CCCC(OC(=O)C(c2ccccc2)c2ccccc2)C1 (stereo not drawn),inactive: -1.05%
13,CC1CCN(C(=O)Oc2c(Cl)cc(Cl)c3cccnc23)CC1,inactive: 4.8%
14,O=[N+]([O-])c1cccc2n[nH]nc12,inactive: -4.77%
15,CC(=O)N1C2C3N(C(C)=O)C1C1N(C(C)=O)C(C(N1C(C)=O)N3C(C)=O)N2C(C)=O,inactive: -3.54%
16,CCc1nc2c(n1)c1c(non1O)c1c2no[n+]1[O-],inactive: -4.29%
17,CCC(C)N(CC(C)C)C(=S)SC(NC(C)=O)C(Cl)(Cl)Cl (stereo not drawn),inactive: -7.43%

row,SMILES,inhibition
1,O=C(COc1ccccc1)OC1CN2CCC1CC2 (stereo not drawn),inactive: 9.82%
2,COP1(=S)c2c(C)nn(CCC#N)c2N=C(c2ccc(F)cc2)N1C (stereo not drawn),inactive: 4.49%
3,O=C(OC1CN2CCC1CC2)C12CC3CC(CC(C3)C1)C2 (stereo not drawn),inactive: 2.3%
4,CCN(CC)C(=S)SC(NC=O)C(Cl)(Cl)Cl (stereo not drawn),inactive: -6.29%
5,ClCCSc1nnc(-c2cccnc2)o1,inactive: -6.64%
6,O=[N+]([O-])c1ccc2c(c1)nnn2O,inactive: -2.76%
7,CCOP1(=S)c2c(C)nn(CCC#N)c2N=C(c2ccc(F)cc2)N1C (stereo not drawn),inactive: 6.64%
8,CCOP1(=S)c2c(C)nn(CCC#N)c2N=C(c2ccccc2F)N1C (stereo not drawn),inactive: -1.81%
9,Cc1cccc(OCC(=O)OC2CN3CCC2CC3)c1 (stereo not drawn),inactive: -1.59%
10,CC1(CBr)Cn2c(nc3ccccc3c2=O)S1 (stereo not drawn),inactive: -3.69%
11,Clc1n[nH]nc1-c1nn[nH][15n]1,inactive: -3.39%
12,O=P1(Nc2ccccn2)COc2ccccc2OC1,inactive: -5.24%
13,O=P1(Nc2ccc(Br)cn2)COc2ccccc2OC1,inactive: -0.61%
14,Cc1ccc(OCC(=O)OC2CN3CCC2CC3)cc1 (stereo not drawn),inactive: -5.77%
15,O=P1(Nc2ncccn2)COc2ccccc2OC1,inactive: 1.45%
16,Cc1nn(-c2ccccc2)c2c1P(=O)(N1CCOCC1)N(C)C(c1ccccc1)=N2 (stereo not drawn),inactive: -10%
